Assay results as given in patent US7820703B2, “Lysophosphatidic acid receptor selective antagonists” (University of Virginia Patent Foundation, priority 2004, dated 2010).

The chains behind the UniProt entries cited, without tags or fusion partners.
UniProt P61793, whole entry: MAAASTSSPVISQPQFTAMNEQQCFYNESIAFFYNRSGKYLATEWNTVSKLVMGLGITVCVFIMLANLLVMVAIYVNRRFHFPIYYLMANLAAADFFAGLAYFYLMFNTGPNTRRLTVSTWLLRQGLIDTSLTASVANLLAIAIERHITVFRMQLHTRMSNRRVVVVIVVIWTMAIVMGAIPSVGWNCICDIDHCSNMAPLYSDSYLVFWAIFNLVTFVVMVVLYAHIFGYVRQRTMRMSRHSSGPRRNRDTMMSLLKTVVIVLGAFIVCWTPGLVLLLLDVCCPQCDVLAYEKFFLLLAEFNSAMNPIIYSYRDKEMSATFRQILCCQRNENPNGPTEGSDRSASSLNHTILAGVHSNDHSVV
UniProt Q9UBY5, whole entry: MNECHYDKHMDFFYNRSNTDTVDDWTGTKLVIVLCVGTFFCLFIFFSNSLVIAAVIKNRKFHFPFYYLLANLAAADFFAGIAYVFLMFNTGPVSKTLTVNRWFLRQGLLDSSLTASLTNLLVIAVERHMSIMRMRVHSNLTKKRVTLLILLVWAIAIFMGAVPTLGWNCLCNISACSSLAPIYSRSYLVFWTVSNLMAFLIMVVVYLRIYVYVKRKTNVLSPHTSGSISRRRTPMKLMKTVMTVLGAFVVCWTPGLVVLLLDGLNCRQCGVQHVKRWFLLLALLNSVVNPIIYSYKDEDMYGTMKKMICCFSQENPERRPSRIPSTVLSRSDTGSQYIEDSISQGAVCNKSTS
UniProt Q9HBW0, whole entry: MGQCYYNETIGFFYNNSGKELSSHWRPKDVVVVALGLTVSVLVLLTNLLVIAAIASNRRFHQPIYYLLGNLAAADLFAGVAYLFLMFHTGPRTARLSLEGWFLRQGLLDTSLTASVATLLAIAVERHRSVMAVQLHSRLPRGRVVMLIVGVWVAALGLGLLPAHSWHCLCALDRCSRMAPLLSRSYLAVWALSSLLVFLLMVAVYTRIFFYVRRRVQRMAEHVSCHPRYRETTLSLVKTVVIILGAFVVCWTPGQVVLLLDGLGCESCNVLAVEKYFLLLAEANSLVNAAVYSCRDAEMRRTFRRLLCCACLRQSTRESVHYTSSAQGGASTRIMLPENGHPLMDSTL

Tests used:
LPA1 receptor = LPA1 receptor (Mus musculus, UniProt P61793); assay: antagonism of LPA-evoked GTP[γ35S] binding at LPA1; type: biochemical; details: for antagonist activity at LPA1, in words: GTP[γ35S] binding
LPA3 receptor = LPA3 receptor (Homo sapiens, UniProt Q9UBY5); assay: antagonism of LPA-evoked GTP[γ35S] binding at LPA3
mouse LPA1 = mouse LPA1 (Mus musculus, UniProt P61793); assay: cAMP accumulation in RH7777 cells expressing LPA1; details: RH7777 cells stably expressing LPA1
human LPA2 = human LPA2 (Homo sapiens, UniProt Q9HBW0); assay: antagonism of LPA-evoked GTP[γ35S] binding at LPA2

SMILES | antagonist activity at LPA1, in words (LPA1 receptor) | Ki (LPA1 receptor; read-out: LPA1 Ki, determined by Schild regression) [nM] | antagonist activity at LPA3, in words (LPA3 receptor) | block of the inhibition of forskolin-induced increases in cAMP levels (mouse LPA1) | antagonist activity at LPA2, in words (human LPA2)
CCCCCCCC/C=C\CCCCCCCC(=O)N[C@@H](Cc1ccc(OCc2ccccc2)cc1)CC(O)P(=O)(O)O (stereo partly drawn) | modest inhibitory activity |  |  |  | 
CCCCCCCC/C=C\CCCCCCCC(=O)N[C@@H](COP(=O)(O)O)Cc1ccc(OCc2cc(OCCOC)ccn2)cc1 |  | 35 |  |  | 
CCCCCCCC/C=C\CCCCCCCC(=O)N[C@@H](COP(=O)(O)O)Cc1ccc(OCc2ccccn2)cc1 | improves on the antagonist activity of 26 by approximately one log order |  | improves on the antagonist activity of 26 by approximately one log order |  | 
CCCCCCCC/C=C\CCCCCCCC(=O)N[C@@H](COP(=O)(O)O)Cc1ccc(OCc2cc(OC)ccn2)cc1 |  |  | particularly potent and LPA3-selective |  | 
CCCCCCCC/C=C\CCCCCCCC(=O)N[C@H](COP(=O)(O)O)Cc1ccc(OCc2ccccc2)cc1 | surmountable antagonist |  | surmountable antagonist | inhibited | lack of antagonist activity
